Test results: patent US7235557B2, “Compounds and their uses” (MGI GP, Inc., priority 2000, dated 2007)

Sequences of proteins named here, by UniProt entry; tags and fusion partners are left off.
UniProt P09874, whole entry: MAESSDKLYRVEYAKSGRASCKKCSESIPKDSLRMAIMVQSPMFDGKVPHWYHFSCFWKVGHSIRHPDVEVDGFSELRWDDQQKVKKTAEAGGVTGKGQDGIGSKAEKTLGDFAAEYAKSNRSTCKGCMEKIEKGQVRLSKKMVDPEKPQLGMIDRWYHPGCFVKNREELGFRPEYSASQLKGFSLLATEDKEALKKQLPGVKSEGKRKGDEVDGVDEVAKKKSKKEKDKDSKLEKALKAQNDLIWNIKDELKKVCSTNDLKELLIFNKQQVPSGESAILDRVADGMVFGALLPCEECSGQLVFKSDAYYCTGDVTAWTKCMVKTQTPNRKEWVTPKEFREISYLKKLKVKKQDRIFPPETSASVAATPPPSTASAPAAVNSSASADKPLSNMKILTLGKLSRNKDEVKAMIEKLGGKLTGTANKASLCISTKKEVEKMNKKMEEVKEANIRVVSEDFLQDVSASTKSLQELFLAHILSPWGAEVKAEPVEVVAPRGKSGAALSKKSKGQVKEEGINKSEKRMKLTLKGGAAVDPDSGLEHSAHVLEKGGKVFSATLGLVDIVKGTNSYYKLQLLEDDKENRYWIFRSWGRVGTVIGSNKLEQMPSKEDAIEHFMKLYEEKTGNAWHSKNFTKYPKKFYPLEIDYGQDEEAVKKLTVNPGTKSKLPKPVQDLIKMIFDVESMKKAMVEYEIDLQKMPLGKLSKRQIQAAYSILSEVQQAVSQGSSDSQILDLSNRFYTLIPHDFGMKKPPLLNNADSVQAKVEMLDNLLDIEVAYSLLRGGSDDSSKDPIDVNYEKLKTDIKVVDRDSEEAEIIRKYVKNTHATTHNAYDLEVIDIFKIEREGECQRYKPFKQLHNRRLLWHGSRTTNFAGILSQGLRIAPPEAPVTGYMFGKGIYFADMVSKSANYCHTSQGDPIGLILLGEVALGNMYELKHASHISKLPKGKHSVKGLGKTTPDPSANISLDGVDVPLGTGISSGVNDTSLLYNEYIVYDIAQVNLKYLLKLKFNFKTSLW

Biological target: T1, purified recombinant human PARP (Homo sapiens, UniProt P09874)
T1 construct: purchased Trevigan (Gaithersburg, Md.)
Assay: PARP enzyme assay (IC50)
Assay type: biochemical
Conditions: approximate IC50 values, [3H]NAD

IC50: 150 nM
Structure (SMILES): O=C(CN1CCCCC1)Nc1ccc2[nH]c(=O)c3ccccc3c2n1
